By IC50 is commonly meant the concentration at which inhibition is half-maximal.

Chains of the proteins cited; added tags and fusions are not shown.
UniProt Q13393, whole entry: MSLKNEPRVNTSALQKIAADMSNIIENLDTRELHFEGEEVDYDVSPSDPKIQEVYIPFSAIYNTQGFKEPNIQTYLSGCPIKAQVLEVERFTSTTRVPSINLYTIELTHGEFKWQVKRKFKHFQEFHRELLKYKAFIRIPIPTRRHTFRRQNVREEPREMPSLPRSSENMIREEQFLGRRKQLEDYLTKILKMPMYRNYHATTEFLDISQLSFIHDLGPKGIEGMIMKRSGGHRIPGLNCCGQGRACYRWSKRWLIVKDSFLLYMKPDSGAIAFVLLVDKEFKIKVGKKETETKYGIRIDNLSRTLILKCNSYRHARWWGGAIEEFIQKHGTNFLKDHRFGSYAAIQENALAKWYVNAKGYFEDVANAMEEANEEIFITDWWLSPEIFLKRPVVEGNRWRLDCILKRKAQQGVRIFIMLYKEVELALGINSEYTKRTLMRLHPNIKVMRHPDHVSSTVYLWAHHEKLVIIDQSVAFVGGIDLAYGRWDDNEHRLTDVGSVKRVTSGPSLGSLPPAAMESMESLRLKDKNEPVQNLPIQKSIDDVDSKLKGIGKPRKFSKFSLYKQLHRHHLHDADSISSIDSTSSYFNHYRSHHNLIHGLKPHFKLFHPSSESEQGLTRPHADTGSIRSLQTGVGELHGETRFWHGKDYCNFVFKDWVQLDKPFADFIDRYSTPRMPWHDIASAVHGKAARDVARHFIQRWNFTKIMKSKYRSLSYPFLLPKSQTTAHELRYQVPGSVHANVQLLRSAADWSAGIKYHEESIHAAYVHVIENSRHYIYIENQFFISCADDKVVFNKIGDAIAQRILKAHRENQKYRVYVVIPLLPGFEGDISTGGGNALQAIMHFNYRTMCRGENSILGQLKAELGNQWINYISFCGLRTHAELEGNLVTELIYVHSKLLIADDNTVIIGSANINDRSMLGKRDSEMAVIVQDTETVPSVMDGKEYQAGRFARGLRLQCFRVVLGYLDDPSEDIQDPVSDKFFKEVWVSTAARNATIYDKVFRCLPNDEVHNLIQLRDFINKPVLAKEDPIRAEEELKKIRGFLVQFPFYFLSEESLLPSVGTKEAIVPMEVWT
UniProt O14939, whole entry: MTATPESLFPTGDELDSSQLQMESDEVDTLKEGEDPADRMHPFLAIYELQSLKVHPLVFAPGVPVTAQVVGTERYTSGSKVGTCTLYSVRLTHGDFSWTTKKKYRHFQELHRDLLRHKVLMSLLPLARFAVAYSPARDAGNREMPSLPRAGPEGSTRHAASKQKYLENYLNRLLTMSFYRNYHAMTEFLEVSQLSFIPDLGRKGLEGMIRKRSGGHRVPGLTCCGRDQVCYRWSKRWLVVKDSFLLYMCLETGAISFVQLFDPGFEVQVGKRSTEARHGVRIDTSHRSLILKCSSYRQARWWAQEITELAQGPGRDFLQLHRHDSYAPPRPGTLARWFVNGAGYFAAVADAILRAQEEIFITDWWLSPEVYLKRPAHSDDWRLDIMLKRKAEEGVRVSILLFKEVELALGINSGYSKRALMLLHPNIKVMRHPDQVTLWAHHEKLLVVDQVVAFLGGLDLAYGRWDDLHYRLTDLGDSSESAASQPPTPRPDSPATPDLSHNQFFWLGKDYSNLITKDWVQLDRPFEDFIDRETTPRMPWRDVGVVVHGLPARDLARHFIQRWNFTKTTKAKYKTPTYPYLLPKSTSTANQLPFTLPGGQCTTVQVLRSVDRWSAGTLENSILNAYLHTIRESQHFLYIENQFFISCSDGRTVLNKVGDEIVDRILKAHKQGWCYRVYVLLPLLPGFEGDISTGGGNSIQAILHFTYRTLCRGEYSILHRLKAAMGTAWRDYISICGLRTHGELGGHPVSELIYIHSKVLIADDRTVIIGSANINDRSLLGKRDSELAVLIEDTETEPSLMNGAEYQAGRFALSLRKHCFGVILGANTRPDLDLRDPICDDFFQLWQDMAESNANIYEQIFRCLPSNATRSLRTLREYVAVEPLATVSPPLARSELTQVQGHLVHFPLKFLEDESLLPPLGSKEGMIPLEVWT

Some compounds may have been tested in ways that are not shown here.

Here are results for two compounds from ChEMBL document CHEMBL5046323, “Discovery of Phospholipase D Inhibitors with Improved Drug-like Properties and Central Nervous System Penetrance” (ACS Med Chem Lett, 2022).

For one data set, the target named is Phospholipase D1 (Homo sapiens, UniProt Q13393). Description: Inhibition of PLD1 (unknown origin) expressed in human HEK cells by immunoprecipitation assay.
The next data set concerns the target Phospholipase D2 (Homo sapiens, UniProt O14939). Description: Inhibition of PLD2 (unknown origin) expressed in human HEK cells by immunoprecipitation.
For the next data set, the system named is Calu-1. The data set can be described thus: Antiproliferative activity against human Calu-1 cells assessed as reduction on cell viability by cellular assay.
Data set [1] is described as follows: Efflux ratio of apparent permeability from basolateral to apical side over apical to basolateral side in dog MDCK-MDR1 cells.

In the case of `C[C@@H](CN1CCC(n2c(=O)[nH]c3ccccc32)CC1)n1ccccc1=O`, the 50% inhibitory concentration (IC50) at Phospholipase D1 was 0.043 µM; on Phospholipase D2, > 10 µM; in the data set on Calu-1, 0.058 µM. For the same compound, the Ratio in data set [1] came out at 1.6.
In the case of `O=c1ccccn1CCN1CCC(n2c(=O)[nH]c3ccccc32)CC1`, the concentration for half-maximal inhibition (IC50) at Phospholipase D1 is 0.12 µM; at Phospholipase D2, > 10 µM; in the data set on Calu-1, 0.98 µM. Also, the Ratio in data set [1] was 17.
